Test results: PubChem BioAssay (NCI)
Where “and” joins values, the source holds several entries; their conditions need not be identical. Equal entries are not always repeated.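 Protocol summary: plate cells (96-well), add compound at 5 concentrations, incubate 48 h, interpolate endpoints linearly. GI50: concentration for 50% inhibition of growth. TGI: total growth inhibition.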

How the values were obtained:
Assay in all cases: inhibition of tumour cell growth, NCI panel, 48 h
EKVX NSCLC = test system: EKVX NSCLC
SNB-19 CNS = test system: SNB-19 CNS
SR leukemia = test system: SR leukemia
COLO 205 colon = test system: COLO 205 colon
DU-145 prostate = test system: DU-145 prostate
UACC-62 melanoma = test system: UACC-62 melanoma
A549 NSCLC = test system: A549 NSCLC
PC-3 prostate = test system: PC-3 prostate
M14 melanoma = test system: M14 melanoma
SF-539 CNS = test system: SF-539 CNS
OVCAR-8 ovarian = test system: OVCAR-8 ovarian
HCT-15 colon = test system: HCT-15 colon
NCI/ADR-RES ovarian = test system: NCI/ADR-RES ovarian
MALME-3M melanoma = test system: MALME-3M melanoma
SK-OV-3 ovarian = test system: SK-OV-3 ovarian
SF-268 CNS = test system: SF-268 CNS
SNB-75 CNS = test system: SNB-75 CNS
LOX IMVI melanoma = test system: LOX IMVI melanoma
SN12C renal = test system: SN12C renal
K-562 leukemia = test system: K-562 leukemia
T-47D breast = test system: T-47D breast
SK-MEL-28 melanoma = test system: SK-MEL-28 melanoma
HOP-92 NSCLC = test system: HOP-92 NSCLC
HT29 colon = test system: HT29 colon
A498 renal = test system: A498 renal
HL-60(TB) leukemia = test system: HL-60(TB) leukemia
MDA-MB-231 breast = test system: MDA-MB-231 breast
RXF 393 renal = test system: RXF 393 renal
HOP-62 NSCLC = test system: HOP-62 NSCLC
MCF7 breast = test system: MCF7 breast
U251 CNS = test system: U251 CNS
MOLT-4 leukemia = test system: MOLT-4 leukemia
KM12 colon = test system: KM12 colon
OVCAR-3 ovarian = test system: OVCAR-3 ovarian
ACHN renal = test system: ACHN renal
786-0 renal = test system: 786-0 renal
SK-MEL-2 melanoma = test system: SK-MEL-2 melanoma
UO-31 renal = test system: UO-31 renal
UACC-257 melanoma = test system: UACC-257 melanoma
HCT-116 colon = test system: HCT-116 colon
NCI-H226 lung = test system: NCI-H226 lung
MDA-MB-435 = test system: MDA-MB-435
MDA-N = test system: MDA-N
CAKI-1 renal = test system: CAKI-1 renal
TK-10 renal = test system: TK-10 renal
BT-549 breast = test system: BT-549 breast
OVCAR-4 ovarian = test system: OVCAR-4 ovarian
HCC-2998 colon = test system: HCC-2998 colon
NCI-H23 lung = test system: NCI-H23 lung
HS 578T breast = test system: HS 578T breast
NCI-H522 lung = test system: NCI-H522 lung
OVCAR-5 ovarian = test system: OVCAR-5 ovarian
NCI-H322M lung = test system: NCI-H322M lung
CCRF-CEM leukemia = test system: CCRF-CEM leukemia
IGROV1 ovarian = test system: IGROV1 ovarian
SW-620 colon = test system: SW-620 colon
SK-MEL-5 melanoma = test system: SK-MEL-5 melanoma
RPMI-8226 leukemia = test system: RPMI-8226 leukemia
SF-295 CNS = test system: SF-295 CNS
NCI-H460 lung = test system: NCI-H460 lung

`C[As](C)(=O)O` gave a GI50 (EKVX NSCLC) greater than 100 µM, a GI50 (SNB-19 CNS) greater than 100 µM and a GI50 (SR leukemia) greater than 100 µM. It also gave a GI50 (COLO 205 colon) greater than 100 µM, a GI50 (DU-145 prostate) greater than 100 µM and a GI50 (UACC-62 melanoma) greater than 100 µM. The GI50 (A549 NSCLC) was greater than 100 µM, the GI50 (PC-3 prostate) was greater than 100 µM and the GI50 (M14 melanoma) was greater than 100 µM. It also gave a GI50 (SF-539 CNS) greater than 100 µM, a GI50 (OVCAR-8 ovarian) greater than 100 µM and a GI50 (HCT-15 colon) greater than 100 µM. For the same compound, the GI50 (NCI/ADR-RES ovarian) was greater than 100 µM, the GI50 (MALME-3M melanoma) was > 100 µM and 29.1 µM and the GI50 (SK-OV-3 ovarian) was greater than 100 µM. For the same compound, the GI50 (SF-268 CNS) was greater than 100 µM, the GI50 (SNB-75 CNS) was greater than 100 µM and the GI50 (LOX IMVI melanoma) was greater than 100 µM. The GI50 (SN12C renal) was greater than 100 µM, the GI50 (K-562 leukemia) was greater than 100 µM and the GI50 (T-47D breast) was greater than 100 µM. It also gave a GI50 (SK-MEL-28 melanoma) greater than 100 µM, a GI50 (HOP-92 NSCLC) greater than 100 µM and a GI50 (HT29 colon) greater than 100 µM. It also gave a GI50 (A498 renal) greater than 100 µM, a TGI (HL-60(TB) leukemia) greater than 100 µM and a GI50 (MDA-MB-231 breast) greater than 100 µM. It also gave a GI50 (RXF 393 renal) greater than 100 µM, a GI50 (HOP-62 NSCLC) greater than 100 µM and a GI50 (MCF7 breast) greater than 100 µM. For the same compound, the GI50 (U251 CNS) was greater than 100 µM, the GI50 (MOLT-4 leukemia) was greater than 100 µM and the GI50 (KM12 colon) was greater than 100 µM. For the same compound, the GI50 (OVCAR-3 ovarian) was greater than 100 µM, the GI50 (ACHN renal) was greater than 100 µM and the GI50 (786-0 renal) was greater than 100 µM. For the same compound, the GI50 (SK-MEL-2 melanoma) was greater than 100 µM, the GI50 (UO-31 renal) was greater than 100 µM and the GI50 (UACC-257 melanoma) was greater than 100 µM. It also gave a GI50 (HCT-116 colon) greater than 100 µM, a GI50 (NCI-H226 lung) greater than 100 µM and a TGI (NCI-H226 lung) greater than 100 µM. The GI50 (MDA-MB-435) was greater than 100 µM, the GI50 (MDA-N) was greater than 100 µM and the GI50 (CAKI-1 renal) was greater than 100 µM. The GI50 (TK-10 renal) was greater than 100 µM, the GI50 (BT-549 breast) was greater than 100 µM and the GI50 (OVCAR-4 ovarian) was greater than 100 µM. The TGI (OVCAR-4 ovarian) was greater than 100 µM, the GI50 (HCC-2998 colon) was greater than 100 µM and the TGI (HCC-2998 colon) was greater than 100 µM. It also gave a GI50 (NCI-H23 lung) greater than 100 µM, a GI50 (HS 578T breast) greater than 100 µM and a GI50 (NCI-H522 lung) greater than 100 µM. It also gave a GI50 (OVCAR-5 ovarian) greater than 100 µM, a GI50 (NCI-H322M lung) greater than 100 µM and a GI50 (CCRF-CEM leukemia) greater than 100 µM. The TGI (CCRF-CEM leukemia) was greater than 100 µM, the GI50 (IGROV1 ovarian) was greater than 100 µM and the GI50 (SW-620 colon) was greater than 100 µM. It also gave a GI50 (SK-MEL-5 melanoma) greater than 100 µM, a GI50 (RPMI-8226 leukemia) greater than 100 µM and a GI50 (SF-295 CNS) greater than 100 µM. For the same compound, the GI50 (NCI-H460 lung) was greater than 100 µM.
